Values of other authors as cited in patent US11819040B2, “Materials and methods for dietary calcium supplementation of animals” (DSM IP ASSETS B.V., priority 2017, dated 2023).

Details: in water

calcium gluconate
maximum soluble calcium: 2700 mg/L
